Measurements: US20040082598A1, “Compounds specific to adenosine A, receptors and uses thereof” (OSI Pharmaceuticals, Inc., priority 2000, published 2004)

Sequences of proteins named here, by UniProt entry; tags and fusion partners are left off.
UniProt P30542, whole entry: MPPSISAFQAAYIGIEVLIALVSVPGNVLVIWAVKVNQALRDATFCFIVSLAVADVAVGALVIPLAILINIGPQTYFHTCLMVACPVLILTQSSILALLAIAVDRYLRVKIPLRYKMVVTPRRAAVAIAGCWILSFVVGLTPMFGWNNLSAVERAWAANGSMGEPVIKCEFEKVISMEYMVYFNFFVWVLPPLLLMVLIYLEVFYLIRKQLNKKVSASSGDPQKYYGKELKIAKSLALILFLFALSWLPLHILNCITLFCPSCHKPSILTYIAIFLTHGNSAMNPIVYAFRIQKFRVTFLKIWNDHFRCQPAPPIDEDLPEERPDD

Target: human A1 adenosine receptor (Homo sapiens, UniProt P30542)
Assay: fus1-LacZ β-galactosidase assay, yeast expressing human A1 adenosine receptor
Type: cell-based
Parameters: yeast alpha-factor (Mfα1) prepro leader (N, cleaved yes); expressed in transfected cells; host or cells: Saccharomyces cerevisiae (strain CY12660 or related strains carrying plasmid p5095)
Conditions: NECA concentration of 10^−8 M

In the case of `CCNC(=O)[C@H]1O[C@@H](n2cnc3c(N)ncnc32)[C@H](O)[C@@H]1O` [NECA, 5′-N-ethylcarboxamidoadenosine], the “stimulation of β-galactosidase activity” value is reported as “approximately 2 fold”.
